Bioassay records: PubChem, Broad Institute
MITF TRPM1 HTS: MITF TRPM1 promoter activation in melanoma cells; SK-MEL-5 TRPM1-promoter luciferase, 24 h; % of positive control, neutral wells = 0; actives 0.75% (n = 300,000); AID 588334; activation, % at 12.5 µM;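 active means mean activation of at least 80% with every replicate also reaching 80%; inconclusive means mean reaches 80% but some replicate falls short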;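 further: 0% = neutral control wells and 100% = parthenolide positive control wells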
PGC1a acetyl inh: lowers PGC1a acetylation signal in U2OS cells; AlphaScreen anti-acetyl-lysine; with virally co-expressed GCN5 acetyltransferase; inhibition, % at 15.6 µM; actives 0.17% (n = 350,000); AID 651687;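 active means every replicate shows inhibition of at least 40%; inconclusive means mean inhibition at least 40% but some replicate below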;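 further: 0% = neutral control wells and 100% = positive control wells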
miR-122 sensor: inhibitors of miR-122 in Huh7 cells. Huh7 miR-122 Renilla luciferase sensor, 48 h; neutral wells = 0, positive control = 100. activation (reporter increase), % at 12.5 µM. actives 0.3% (n = 340,000);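 active means mean replicate activation score at least 90 and every replicate individually at or above 90; inconclusive means only one of the two criteria met; inactive means neither criterion met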;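 further: higher luciferase means less miR-122 activity so hits act as miR-122 inhibitors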
Wnt act: Wnt/beta-catenin pathway activation | Wnt/beta-catenin reporter cell assay, activator, plate reader | activation, % at 9.35 µM | actives 1.2% (n = 300,000); in the data active means activation above about 30%, passing the limit was not always enough; inconclusive means no clear call, values can overlap the other calls;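 further: 0% = neutral control wells and 100% = positive control wells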
UUG fidelity: modulators of yeast start codon fidelity, primary screen, whole organism, S. cerevisiae, single point, plate reader | AID 602363, 2012 | actives 0.13% (n = 350,000) | activity score, % at 18.7 µM | S. cerevisiae UUG-firefly luciferase reporter, luminescence/redox ratio;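 active means replicate mean at a twofold rise or more, about +100% in these data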;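 further: firefly luciferase made from a UUG start codon reports start codon fidelity; reporter light over untreated wells divided by growth signal over untreated wells; some hits fall short of that in this replicate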
TRPM1 prom inh: reduces MITF-dependent TRPM1 promoter luciferase signal | SK-MEL-5 TRPM1 promoter luciferase, 24 h | inhibition, % at 12.5 µM | actives 0.83% (n = 330,000);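 active means mean inhibition across replicates of 60% or more, whatever share of single replicates reaches that level; inconclusive means some that reach 60%, reason not given; inactive means mean inhibition across replicates below 60%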
Starred values were filed as active, the others as inactive; u = inconclusive; x = no result; [ ] = remark or other dose. Most compounds without a hit are left out; they make up all but 2.1% or so of the library.

Sample of the layout (2 entries):
1) O=C(CCl)Nc1ccccc1Sc1ccccc1
2) COc1cccc(NC(=O)c2cccc(NC(=O)c3ccco3)c2)c1
assay / compound,1,2
MITF TRPM1 HTS,-16,x
PGC1a acetyl inh,x,-9
miR-122 sensor,0,-3
Wnt act,-8,-1
UUG fidelity,509*,-9
TRPM1 prom inh,12,x

The list itself, previewed entries included:
1) O=C(CCl)Nc1ccccc1Sc1ccccc1
2) COc1cccc(NC(=O)c2cccc(NC(=O)c3ccco3)c2)c1
3) Cc1cc(C(=O)Nc2cccc3c2O[C@@H](CN(C)C(=O)NC(C)C)[C@H](C)CN([C@H](C)CO)C3=O)n(C)n1
4) O=C(CCl)Nc1cccc(Oc2cnccn2)c1
5) Cc1ccc(C(=O)Nc2cccc(Oc3ccccc3)c2)o1
assay / compound,1,2,3,4,5
MITF TRPM1 HTS,-16,x,x,-30,90*
PGC1a acetyl inh,x,-9,7,x,1
miR-122 sensor,0,-3,4[16.7 µM],-6,-3
Wnt act,-8,-1,x,-4,x
UUG fidelity,509*,-9,13,-9,-3
TRPM1 prom inh,12,x,x,30,-90

6) O=C(CCl)Nc1cccc(Oc2ccccc2)c1
7) CCCCCn1c(CN2CCN(C(=O)c3ccco3)CC2)nc2c1c(=O)n(C)c(=O)n2C
8) Cc1noc(C)c1S(=O)(=O)Nc1cccc2c1O[C@H](CN(C)C(=O)Nc1ccc(C(F)(F)F)cc1)[C@H](C)CN([C@H](C)CO)C2=O
9) CC(C)c1ccc(NC(=O)C2=NNC(=O)CC2)cc1
10) Cc1ccc(NC(=O)C2=NNC(=O)CC2)cc1F
assay / compound,6,7,8,9,10
MITF TRPM1 HTS,-65,x,x,78,40
PGC1a acetyl inh,-18,x,1,x,x
miR-122 sensor,-2,1,3[16.7 µM],x,x
Wnt act,-1,61*,x,u,34*
UUG fidelity,-48,-9,9,x,x
TRPM1 prom inh,66*,x,x,-84,-37

11) c1ccc(-c2cc3nccc(-c4ccccn4)n3n2)cc1
12) C[C@@H]1CN([C@@H](C)CO)C(=O)Cc2cc(NS(=O)(=O)c3cn(C)cn3)ccc2O[C@H]1CN(C)C(=O)Nc1ccc(F)cc1
13) COC(=O)c1ccc(OC)c(OC2CCCC2)c1
14) CC1(C)CC(=O)C2=C(C1)Oc1nc3ccccc3cc1C2C(C#N)C#N (stereo not given)
15) S=C(Nc1ccc(Cl)cc1)NC1CC2CCCC(C1)N2C1CCCC1 (stereo not given)
assay / compound,11,12,13,14,15
MITF TRPM1 HTS,127*,x,-6,-81,7
PGC1a acetyl inh,x,6,89*,6,5
miR-122 sensor,x,3[16.7 µM],x,-3,x
Wnt act,19,x,-1,x,x
UUG fidelity,x,-1,x,-8,-23
TRPM1 prom inh,-122,x,10,80*,-8

16) C=CCN1C2CCCC1CC(NC(=S)Nc1ccc(Cl)cc1)C2 (stereo not given)
17) O=C(Nc1cccc(F)c1)N1CC(=O)N2[C@H](CO)[C@H](c3ccc(-c4ccccc4)cc3)[C@@H]2C1
18) CCc1ccc(NCc2nc3ccccc3c(=O)[nH]2)cc1
19) CCCCNCc1nc2ccccc2c(=O)[nH]1
20) Cc1ccc(-c2cc(NC(=O)c3ccccc3)on2)cc1
assay / compound,16,17,18,19,20
MITF TRPM1 HTS,15,x,21,-7,75
PGC1a acetyl inh,x,11,-3,11,x
miR-122 sensor,x,x,-2,x,0
Wnt act,39*,x,35*,-1,34*
UUG fidelity,x,x,-56,x,-17
TRPM1 prom inh,-13,x,-18,4,-71

21) COc1ccc(C(=O)Nc2cc(-c3ccc(C)cc3)no2)cc1
22) CCCC(=O)Nc1sc(C(=O)Nc2cccc(N)c2)c(C)c1C(=O)OC
23) COC(=O)c1c(NC(C)=O)sc(C(=O)Nc2ccccc2F)c1C
24) O=C(NCC1CC1)[C@H]1[C@H](CO)[C@H]2Cn3c(ccc(C4=CCCCC4)c3=O)[C@H]2N1Cc1ccccc1F
25) COc1ccc(S(=O)(=O)Nc2ccc3c(c2)CC(=O)N([C@H](C)CO)C[C@H](C)[C@@H](CN(C)C(=O)Nc2ccccc2)O3)cc1
assay / compound,21,22,23,24,25
MITF TRPM1 HTS,23,45,58,x,x
PGC1a acetyl inh,2,-49,x,x,-4
miR-122 sensor,2,-5,x,-8[16.7 µM],-3[16.7 µM]
Wnt act,2,37*,37*,x,x
UUG fidelity,-10,-11,x,7,7
TRPM1 prom inh,-19,-41,-56,x,x

Profiles from above. Screens in order: MITF TRPM1 HTS	PGC1a acetyl inh	miR-122 sensor	Wnt act	UUG fidelity	TRPM1 prom inh
Entry for `COc1ccc(S(=O)(=O)Nc2ccc3c(c2)CC(=O)N([C@H](C)CO)C[C@H](C)[C@@H](CN(C)C(=O)Nc2ccccc2)O3)cc1` → x	-4	-3[16.7 µM]	x	7	x
Entry for `O=C(NCC1CC1)[C@H]1[C@H](CO)[C@H]2Cn3c(ccc(C4=CCCCC4)c3=O)[C@H]2N1Cc1ccccc1F` → x	x	-8[16.7 µM]	x	7	x

Next section
26) C/C=C/c1cnc2c(c1)C(=O)N([C@H](C)CO)C[C@@H](C)[C@H](CN(C)C(=O)C1CC1)O2
27) c1ccc(-c2nc(-c3nccc4ccccc34)oc2-c2ccccc2)cc1
28) Cc1noc(C)c1NC(=O)N(C)C[C@@H]1Oc2c(NC(=O)c3cnccn3)cccc2C(=O)N([C@H](C)CO)C[C@@H]1C
29) Cc1ccc(/C=C/c2nc3ccccc3[nH]2)o1
30) CCc1nc2ccccc2[nH]1
assay / compound,26,27,28,29,30
MITF TRPM1 HTS,x,109*,x,21,-10
PGC1a acetyl inh,3,x,14,5,-2
miR-122 sensor,-4[16.7 µM],x,-12[16.7 µM],x,1
Wnt act,x,27,x,38*,1
UUG fidelity,7,x,15,x,-7
TRPM1 prom inh,x,-115,x,-20,10

31) CN(C)S(=O)(=O)Oc1cccc(C(=O)Nc2ccc(Cl)c(Cl)c2)c1
32) COc1ccc(NC(=O)c2cccc(OS(=O)(=O)N(C)C)c2)cc1
33) CN(C)S(=O)(=O)Oc1cccc(C(=O)Nc2cccc(Cl)c2)c1
34) CCC(=O)Nc1cccc(-c2nc3ccc(C)cc3o2)c1
35) Cc1ccc2oc(-c3cccc(NC(=O)c4ccccn4)c3)nc2c1
assay / compound,31,32,33,34,35
MITF TRPM1 HTS,33,49,x,x,x
PGC1a acetyl inh,-15,-3,-12,1,1
miR-122 sensor,-3,-4,1,-1,1
Wnt act,x,55*,31*,38*,37*
UUG fidelity,-24,x,-22,-21,2
TRPM1 prom inh,-32,-39,-22,-56,-19

36) O=C(C[C@@H]1CC[C@H]2[C@@H](COC[C@@H](O)CN2Cc2cccc(F)c2)O1)NCc1ccncc1
37) C[C@@H]1CCCCO[C@H](CN(C)C(=O)c2ccccc2)[C@@H](C)CN([C@H](C)CO)C(=O)c2cc(N(C)C)ccc2O1
38) COc1ccccc1S(=O)(=O)N1C[C@H](O)COC[C@H]2O[C@H](CC(=O)O)CC[C@@H]21
39) COc1ccc(-c2cn(-c3cccc(C)c3)c(=O)[nH]2)cc1OC
40) Cc1ccc(-n2cc(-c3ccccc3)[nH]c2=O)cc1F
assay / compound,36,37,38,39,40
MITF TRPM1 HTS,x,x,x,x,113*
PGC1a acetyl inh,-8,4,1,5,11
miR-122 sensor,5[16.7 µM],-6[16.7 µM],-2[16.7 µM],-2,4
Wnt act,x,x,x,-1,0
UUG fidelity,x,-7,-16,-13,-14
TRPM1 prom inh,x,x,x,x,-110

41) Cn1c(-c2cc3ccc(OC(=O)C(C)(C)C)cc3oc2=O)nc2ccccc21
42) COCC(=O)Nc1ccc2c(c1)[C@H]1C[C@@H](CC(=O)NCc3ccc(OC)cc3)O[C@@H](CO)[C@H]1O2
43) Cc1cc(C)c2nc(NNC(=O)c3ccc(S(=O)(=O)N4CC(C)CC(C)C4)cc3)sc2c1 (stereo not given)
44) Cc1cccc2sc(NNC(=O)c3ccc(S(=O)(=O)N4CC(C)CC(C)C4)cc3)nc12 (stereo not given)
45) Cc1cc(C)c2nc(NNC(=O)c3ccc(S(=O)(=O)N4CCCC(C)C4)cc3)sc2c1 (stereo not given)
assay / compound,41,42,43,44,45
MITF TRPM1 HTS,54,x,-70,-76,-44
PGC1a acetyl inh,0,7,x,x,-2
miR-122 sensor,5,5[16.7 µM],x,x,-17
Wnt act,34*,x,-21,-18,5
UUG fidelity,-21,-14,-25,-21,-21
TRPM1 prom inh,-50,x,69*,78*,46

46) Cc1ccc2nc(NNC(=O)c3ccc(S(=O)(=O)N4CCc5ccccc5C4)cc3)sc2c1
47) COC(=O)c1sc2ccccc2c1NC(=O)c1ccc(S(=O)(=O)N2CC(C)CC(C)C2)cc1 (stereo not given)
48) CCS(=O)(=O)N1CCCCN2[C@H](CO)[C@H](c3ccc(-c4ccccc4)cc3)[C@@H]2C1
49) Cc1ccsc1/C=N/Nc1ccc(F)cc1F
50) Cc1cc(C)nc(N/N=C/c2sccc2C)n1
assay / compound,46,47,48,49,50
MITF TRPM1 HTS,-77,4,x,95*,35
PGC1a acetyl inh,6,x,-1,x,x
miR-122 sensor,-4,x,1[16.7 µM],x,x
Wnt act,3,x,x,10,4
UUG fidelity,-13,x,-10,x,x
TRPM1 prom inh,78*,-2,x,-85,-37
